Values quoted from earlier work as cited in paper PMC10082586 (Cancer chemotherapy and pharmacology, 2022).

Conditions: humans, cited from earlier work

## C[C@@H]1COCCN1c1cc(-c2ccnn2C)c2ccnc(-c3ccn[nH]3)c2n1 [BAY-1895344]
5 to 80 mg administered twice daily
  Clinical dose proportionality of exposure: dose proportional exposure and no evidence of saturable absorption
  Clinical adverse events: severe adverse events, specifically neutropenia and thrombocytopenia
